This test concerns the target Beta-2 adrenergic receptor (Cavia porcellus, UniProt Q8K4Z4).

By UniProt entry, the sequences of proteins in these tests, tags left out.
UniProt Q8K4Z4, whole entry: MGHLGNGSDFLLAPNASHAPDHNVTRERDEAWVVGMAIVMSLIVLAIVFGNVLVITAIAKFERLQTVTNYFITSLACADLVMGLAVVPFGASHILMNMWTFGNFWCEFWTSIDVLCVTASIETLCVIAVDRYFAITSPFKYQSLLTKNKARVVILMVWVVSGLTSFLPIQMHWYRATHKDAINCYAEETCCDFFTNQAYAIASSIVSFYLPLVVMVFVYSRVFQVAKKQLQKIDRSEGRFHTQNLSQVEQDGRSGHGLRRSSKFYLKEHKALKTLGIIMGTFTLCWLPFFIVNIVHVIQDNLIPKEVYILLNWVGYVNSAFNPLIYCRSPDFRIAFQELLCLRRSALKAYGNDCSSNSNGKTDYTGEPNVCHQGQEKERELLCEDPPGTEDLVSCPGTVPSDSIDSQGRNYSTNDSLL

The EC50 is the midpoint of the concentration-response curve. Lower therefore signals an effect from little substance. Take `CC(C)(C)NCC(O)c1ccc(O)c(CO)c1` (racemic) [ALBUTEROL]: the EC50 is 9.1 nM.

The record behind these values is ChEMBL document CHEMBL1152790, “Synthesis and pharmacological characterization of beta2-adrenergic agonist enantiomers: zilpaterol” (J Med Chem, 2009).
